Molecules are shown by their SMILES. This is a selection; strong and weak results do not stand in their true shares. Some results for these compounds are left out of this collection, so the calls shown say nothing about other tests. Activity calls are given as the source filed them. Rule as the data show it: active = inhibition above about 19%; inactive = the rest.

Sequences of proteins named here, by UniProt entry; tags and fusion partners are left off.
UniProt Q05397, whole entry: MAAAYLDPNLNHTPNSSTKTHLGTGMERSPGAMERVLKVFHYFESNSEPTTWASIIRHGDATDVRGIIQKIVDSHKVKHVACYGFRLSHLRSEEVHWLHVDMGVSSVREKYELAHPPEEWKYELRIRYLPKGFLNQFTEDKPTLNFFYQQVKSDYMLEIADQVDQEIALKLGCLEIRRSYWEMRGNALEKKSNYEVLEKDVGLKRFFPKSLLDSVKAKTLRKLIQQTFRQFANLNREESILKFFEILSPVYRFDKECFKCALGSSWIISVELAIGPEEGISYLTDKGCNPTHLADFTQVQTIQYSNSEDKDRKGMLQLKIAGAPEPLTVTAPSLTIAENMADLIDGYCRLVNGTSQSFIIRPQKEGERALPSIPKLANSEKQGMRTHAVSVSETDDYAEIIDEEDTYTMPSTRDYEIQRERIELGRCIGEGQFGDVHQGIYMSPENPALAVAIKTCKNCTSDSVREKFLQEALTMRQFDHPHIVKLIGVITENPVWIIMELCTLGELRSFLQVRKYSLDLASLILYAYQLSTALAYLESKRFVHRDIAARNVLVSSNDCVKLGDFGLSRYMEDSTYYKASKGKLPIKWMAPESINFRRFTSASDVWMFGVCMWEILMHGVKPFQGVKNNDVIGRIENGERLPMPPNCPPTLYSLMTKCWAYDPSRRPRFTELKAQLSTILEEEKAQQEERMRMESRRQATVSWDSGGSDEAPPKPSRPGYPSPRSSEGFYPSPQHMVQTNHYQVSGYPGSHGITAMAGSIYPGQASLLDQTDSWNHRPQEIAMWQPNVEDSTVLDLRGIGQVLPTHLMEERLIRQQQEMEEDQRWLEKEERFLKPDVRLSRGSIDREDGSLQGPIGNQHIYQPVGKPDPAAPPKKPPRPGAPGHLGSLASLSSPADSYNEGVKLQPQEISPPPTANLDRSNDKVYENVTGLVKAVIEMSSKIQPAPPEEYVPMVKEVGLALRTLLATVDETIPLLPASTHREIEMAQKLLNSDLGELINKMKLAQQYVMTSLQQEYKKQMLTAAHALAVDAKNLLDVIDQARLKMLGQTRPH

The target in this test is Focal adhesion kinase 1 (Homo sapiens) (UniProt Q05397). Briefly: FAK kinase inhibitors, primary screen, biochemical (AID 727).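 Also: 0% = DMSO and 100% = reference compound high control.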 Conditions: biochemical FAK kinase activity assay; stronger effect = higher value;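 tested at 7 µM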.
Turning to `O=C(OC1CN2CCC1CC2)C(CO)(c1ccccc1)c1ccccc1` (stereo not drawn), the inhibition was inactive: -0.19%.
As for `CN(C)c1cccc(C(=O)NCC2(N(C)C)CCCCC2)c1`, the figure is inactive: 0.57%.
In the case of `CC(C)N1C(=O)CC2(CCN(CCOC(=O)C(O)(c3ccccc3)c3ccccc3)CC2)C1=O`, the inhibition is inactive: 0.25%.

In general, inhibition refers to the relative decrease from the control value, in per cent.

The values above are taken from PubChem BioAssay AID727 (The Scripps Research Institute Molecular Screening Center, 2007).
